## Measured affinities in a library of Ab-14 heavy chain variants

Binding partner: SARS-CoV-2 spike HR2 peptide, sequence PDVDLGDISGINAS.

The variants keep the light chain, the linker and the frameworks of Ab-14 (scFv order VH, a 15-residue (Gly4Ser)3 linker, VL).
VH: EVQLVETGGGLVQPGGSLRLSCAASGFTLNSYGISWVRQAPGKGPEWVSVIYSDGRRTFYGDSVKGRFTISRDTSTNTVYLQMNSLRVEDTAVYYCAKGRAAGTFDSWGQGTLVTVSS
VL: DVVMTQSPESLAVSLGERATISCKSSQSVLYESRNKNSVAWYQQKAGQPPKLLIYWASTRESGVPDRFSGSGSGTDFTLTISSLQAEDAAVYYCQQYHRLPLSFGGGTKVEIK

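The parent was found by panning a naive human phage display library on the peptide. In library AAYL49, one, two or three CDR residues were substituted; doubles and triples were drawn at random. The assay is AlphaSeq: two haploid yeast populations carry antibody and antigen on their surface. Pairs that bind mate more often; barcode pairs of the diploids are counted by sequencing. A regression on co-assayed BCL2-family reference pairs converts the normalised counts of each replicate to an apparent Kd. Mating was done three times.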

The whole VH of each variant is written out.
Values are log10 of the apparent Kd in nM; lower means stronger binding.
An entry "nd" has no value in the source: the pair was not observed among the diploids in that replicate. This suggests poor binding but is not conclusive.
Parent in this assay: reference entry 0.65, copy in this library 4.11 (one replicate of three).
As a blank, each scFv also met three strains without target: over library AAYL49, 15% of these pairings were detected, typically at 4.06 and seldom below 2.83. The control count says in how many pairings with the empty strains this scFv gave a signal, with their mean in brackets.

VH	log10 Kd (nM) by replicate	empty controls
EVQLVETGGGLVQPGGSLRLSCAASGFTLNSYEISWVRQAPGKGPEWVSSIYSDGSRTFYGDSVKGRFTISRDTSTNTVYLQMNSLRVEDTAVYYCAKGRAAGTFDSWGQGTLVTVSS	nd 3.74 nd	5 of 9 (4.38)
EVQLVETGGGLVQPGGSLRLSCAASGFSLNSYGISWVRQAPGKGPEWVSSIYSDGPRTFYGDSVKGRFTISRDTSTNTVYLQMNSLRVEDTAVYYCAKGRAAGTFDSWGQGTLVTVSS	nd nd nd	1 of 9 (3.51)
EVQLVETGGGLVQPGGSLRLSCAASGFTLNSYGISWVRQAPGKGPEWVSVIYCCGRRTFYGDSVKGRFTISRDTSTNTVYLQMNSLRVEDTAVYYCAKGRIAGTFDSWGQGTLVTVSS	3.82 nd nd	1 of 9 (2.90)
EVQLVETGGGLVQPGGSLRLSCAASGFTLNGYGISWVRQAPGKGPEWVSVIYSDGRRTFYGDLVKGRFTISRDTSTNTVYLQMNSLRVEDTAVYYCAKLRAAGTFDSWGQGTLVTVSS	2.52 2.02 2.76	0 of 9
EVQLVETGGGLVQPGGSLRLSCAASGFTLNSYGISWVRQAPGKGPEWVSVIYSAGRRTFYGMSVKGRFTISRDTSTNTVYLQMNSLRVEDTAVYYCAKGRAAGTFDSWGQGTLVTVSS	nd nd nd	1 of 9 (3.86)
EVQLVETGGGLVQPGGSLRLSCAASGFTLNSYGIFWVRQAPGKGPEWVSVIYSDGTRTFYGDWVKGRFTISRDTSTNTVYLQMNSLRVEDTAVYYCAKGRAAGTFDSWGQGTLVTVSS	nd nd nd	3 of 9 (4.38)
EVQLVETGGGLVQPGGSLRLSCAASGFTLNSVGISWVRQAPGKGPEWVSVIYSDGRRTFNGDSVKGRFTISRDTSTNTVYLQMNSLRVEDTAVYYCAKGRAAGTFDSWGQGTLVTVSS	nd 3.26 nd	3 of 9 (3.58)
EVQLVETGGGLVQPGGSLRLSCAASGFTLNSYGISWVRQAPGKGPEWVSVLYSDGRRTFYGDCVKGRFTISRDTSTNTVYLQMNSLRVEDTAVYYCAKGRAAGTFDPWGQGTLVTVSS	nd 3.02 nd	0 of 9
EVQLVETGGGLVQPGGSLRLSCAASGFTLNSYGISWVRQAPGKGPEWVSVIYSDGRRAFYGDTVKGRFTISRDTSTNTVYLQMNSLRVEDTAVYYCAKGRAAGTFDNWGQGTLVTVSS	1.91 2.13 2.10	0 of 9
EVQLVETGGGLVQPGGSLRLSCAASGFTLNSYGISWVRQAPGKGPEWVSVIYSDGRRYFYGDSVKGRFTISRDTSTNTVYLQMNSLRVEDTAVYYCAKGRAAKTFDSWGQGTLVTVSS	5.62 nd nd	3 of 9 (4.27)
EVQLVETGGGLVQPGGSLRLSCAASGFTLNSYGILWVRQAPGKGPEWVSVIYSDGRRTFYGDSVKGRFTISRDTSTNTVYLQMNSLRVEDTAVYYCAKGRAAGTFDSWGQGTLVTVSS	4.52 nd nd	1 of 9 (3.94)
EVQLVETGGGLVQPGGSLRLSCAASGFTLNSYGISWVRQAPGKGPEWVSVIDSDGRRTFYGDSVKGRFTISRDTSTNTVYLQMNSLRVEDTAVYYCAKGSAAGPFDSWGQGTLVTVSS	nd nd nd	0 of 9
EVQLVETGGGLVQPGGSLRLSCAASGFTLNSYGNSWVRQAPGKGPEWVSVIYNDGRRTFYGDSVKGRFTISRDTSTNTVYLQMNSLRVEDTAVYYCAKGRHAGTFDSWGQGTLVTVSS	nd nd nd	1 of 9 (4.06)
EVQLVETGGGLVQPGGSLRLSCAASGFTLNTYGISWVRQAPGKGPEWVSVIKSDGRRTFSGDSVKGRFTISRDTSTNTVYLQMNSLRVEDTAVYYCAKGRAAGTFDSWGQGTLVTVSS	nd nd nd	1 of 9 (4.06)
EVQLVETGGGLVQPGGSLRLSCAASGFTLNSYGFSWVRQAPGKGPEWVSVIYSDGRRTFYGDSVAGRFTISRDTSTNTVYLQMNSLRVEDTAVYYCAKGRAAGTFDSWGQGTLVTVSS	nd nd 3.86	1 of 9 (3.50)

Picked from the list: the 2 lowest averages where every replicate gave a value.

| VH | log10 Kd (nM) by replicate | empty controls |
|---|---|---|
| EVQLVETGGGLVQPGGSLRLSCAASGFTLNSYGISWVRQAPGKGPEWVSVIYSDGRRAFYGDTVKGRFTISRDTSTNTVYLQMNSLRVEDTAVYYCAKGRAAGTFDNWGQGTLVTVSS | 1.91 2.13 2.10 | 0 of 9 |
| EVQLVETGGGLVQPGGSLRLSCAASGFTLNGYGISWVRQAPGKGPEWVSVIYSDGRRTFYGDLVKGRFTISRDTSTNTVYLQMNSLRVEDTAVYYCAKLRAAGTFDSWGQGTLVTVSS | 2.52 2.02 2.76 | 0 of 9 |

From the AlphaSeq antibody data of Engelhart et al. 2022 (doi:10.1038/s41597-022-01779-4), copy in the FLAb collection.